Some tests of the compounds listed are not included; inactive here does not mean inactive elsewhere.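 Briefly, cells in 96-well plates were exposed to five compound concentrations for 48 h, and endpoints were estimated by linear interpolation. GI50 marks 50% less growth. Definition used: TGI = concentration required for complete inhibition of growth.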
Assays:
Assay in all cases: NCI tumour cell line growth inhibition, 48 h
786-0 renal = system: 786-0 renal
A549 NSCLC = system: A549 NSCLC
ACHN renal = system: ACHN renal
CAKI-1 renal = system: CAKI-1 renal
CCRF-CEM leukemia = system: CCRF-CEM leukemia
COLO 205 colon = system: COLO 205 colon
DU-145 prostate = system: DU-145 prostate
EKVX NSCLC = system: EKVX NSCLC
HCC-2998 colon = system: HCC-2998 colon
HCT-116 colon = system: HCT-116 colon
HCT-15 colon = system: HCT-15 colon
HL-60(TB) leukemia = system: HL-60(TB) leukemia
HOP-62 NSCLC = system: HOP-62 NSCLC
HT29 colon = system: HT29 colon
IGROV1 ovarian = system: IGROV1 ovarian
K-562 leukemia = system: K-562 leukemia
KM12 colon = system: KM12 colon
LOX IMVI melanoma = system: LOX IMVI melanoma
M14 melanoma = system: M14 melanoma
MALME-3M melanoma = system: MALME-3M melanoma
MCF7 breast = system: MCF7 breast
MDA-MB-231 breast = system: MDA-MB-231 breast
MDA-N = system: MDA-N
MOLT-4 leukemia = system: MOLT-4 leukemia
NCI-H226 lung = system: NCI-H226 lung
NCI-H23 lung = system: NCI-H23 lung
NCI-H522 lung = system: NCI-H522 lung
NCI/ADR-RES ovarian = system: NCI/ADR-RES ovarian
OVCAR-3 ovarian = system: OVCAR-3 ovarian
OVCAR-5 ovarian = system: OVCAR-5 ovarian
OVCAR-8 ovarian = system: OVCAR-8 ovarian
PC-3 prostate = system: PC-3 prostate
RPMI-8226 leukemia = system: RPMI-8226 leukemia
RXF 393 renal = system: RXF 393 renal
SF-268 CNS = system: SF-268 CNS
SF-295 CNS = system: SF-295 CNS
SF-539 CNS = system: SF-539 CNS
SK-MEL-28 melanoma = system: SK-MEL-28 melanoma
SK-MEL-5 melanoma = system: SK-MEL-5 melanoma
SK-OV-3 ovarian = system: SK-OV-3 ovarian
SN12C renal = system: SN12C renal
SNB-19 CNS = system: SNB-19 CNS
SNB-75 CNS = system: SNB-75 CNS
SR leukemia = system: SR leukemia
SW-620 colon = system: SW-620 colon
T-47D breast = system: T-47D breast
TK-10 renal = system: TK-10 renal
U251 CNS = system: U251 CNS
UACC-257 melanoma = system: UACC-257 melanoma
UACC-62 melanoma = system: UACC-62 melanoma
UO-31 renal = system: UO-31 renal

## C=C(C)C(O)(C(=O)OC1CN2CCC1CC2)c1cccs1 (configuration not stated)
786-0 renal
  GI50: > 100 µM
  TGI: > 100 µM
A549 NSCLC
  GI50: > 100 µM
  TGI: > 100 µM
ACHN renal
  GI50: > 100 µM
  TGI: > 100 µM
CAKI-1 renal
  GI50: > 100 µM
  TGI: > 100 µM
CCRF-CEM leukemia
  GI50: > 100 µM
  TGI: > 100 µM
COLO 205 colon
  GI50: > 100 µM
  TGI: > 100 µM
DU-145 prostate
  GI50: > 100 µM
  TGI: > 100 µM
EKVX NSCLC
  GI50: > 100 µM
  TGI: > 100 µM
HCC-2998 colon
  GI50: > 100 µM
  TGI: > 100 µM
HCT-116 colon
  GI50: > 100 µM
  TGI: > 100 µM
HCT-15 colon
  GI50: > 100 µM
  TGI: > 100 µM
HL-60(TB) leukemia
  GI50: > 100 µM
  TGI: > 100 µM
HOP-62 NSCLC
  GI50: > 100 µM
  TGI: > 100 µM
HT29 colon
  GI50: > 100 µM
  TGI: > 100 µM
IGROV1 ovarian
  GI50: > 100 µM
  TGI: > 100 µM
K-562 leukemia
  GI50: > 100 µM
  TGI: > 100 µM
KM12 colon
  GI50: > 100 µM
  TGI: > 100 µM
LOX IMVI melanoma
  GI50: > 100 µM
  TGI: > 100 µM
M14 melanoma
  GI50: > 100 µM
  TGI: > 100 µM
MALME-3M melanoma
  GI50: > 100 µM
  TGI: > 100 µM
MCF7 breast
  GI50: > 100 µM
  TGI: > 100 µM
MDA-MB-231 breast
  GI50: > 100 µM
  TGI: > 100 µM
MDA-N
  GI50: > 100 µM
  TGI: > 100 µM
MOLT-4 leukemia
  GI50: > 100 µM
  TGI: > 100 µM
NCI-H226 lung
  GI50: > 100 µM
  TGI: > 100 µM
NCI-H23 lung
  GI50: > 100 µM
  TGI: > 100 µM
NCI-H522 lung
  GI50: > 100 µM
  TGI: > 100 µM
NCI/ADR-RES ovarian
  GI50: > 100 µM
  TGI: > 100 µM
OVCAR-3 ovarian
  GI50: > 100 µM
  TGI: > 100 µM
OVCAR-5 ovarian
  GI50: > 100 µM
  TGI: > 100 µM
OVCAR-8 ovarian
  GI50: > 100 µM
  TGI: > 100 µM
PC-3 prostate
  GI50: > 100 µM
  TGI: > 100 µM
RPMI-8226 leukemia
  GI50: > 100 µM
  TGI: > 100 µM
RXF 393 renal
  GI50: > 100 µM
  TGI: > 100 µM
SF-268 CNS
  GI50: > 100 µM
  TGI: > 100 µM
SF-295 CNS
  GI50: > 100 µM
  TGI: > 100 µM
SF-539 CNS
  GI50: > 100 µM
  TGI: > 100 µM
SK-MEL-28 melanoma
  GI50: > 100 µM
  TGI: > 100 µM
SK-MEL-5 melanoma
  GI50: > 100 µM
  TGI: > 100 µM
SK-OV-3 ovarian
  GI50: > 100 µM
  TGI: > 100 µM
SN12C renal
  GI50: > 100 µM
  TGI: > 100 µM
SNB-19 CNS
  GI50: > 100 µM
  TGI: > 100 µM
SNB-75 CNS
  GI50: > 100 µM
  TGI: > 100 µM
SR leukemia
  GI50: > 100 µM
  TGI: > 100 µM
SW-620 colon
  GI50: > 100 µM
  TGI: > 100 µM
T-47D breast
  GI50: > 100 µM
  TGI: > 100 µM
TK-10 renal
  GI50: > 100 µM
  TGI: > 100 µM
U251 CNS
  GI50: > 100 µM
  TGI: > 100 µM
UACC-257 melanoma
  GI50: > 100 µM
  TGI: > 100 µM
UACC-62 melanoma
  GI50: > 100 µM
  TGI: > 100 µM
UO-31 renal
  GI50: 75.9 µM
  TGI: > 100 µM
